The entries are a selection whose mix differs from that of the whole data set. Some tests of the compounds listed are not included; inactive here does not mean inactive elsewhere. Active and inactive are the calls of the source. The call rests on the fitted dose curve; in most records, active means well fitted activation curve with a large enough effect; inconclusive means small, poorly fitted or top-dose-only effect, or another doubt; inactive means no such curve, though single readings can be large or run the other way.
molecular target: Rap guanine nucleotide exchange factor 4 (Homo sapiens) (UniProt Q8WZA2); assay: Validation qHTS for agonist of cAMP-regulated guanine nucleotide exchange factor 4 (EPAC2); details: EPAC2 Rap1B BODIPY-GDP exchange, fluorescence; active compounds read high;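 further: exchange makes BODIPY-GDP fluorescence drop when released from Rap1B; series mostly up to about 150 µM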
Source text: Principle Investigator: Xiaodong Cheng Ph.D.
The University of Texas Medical Branch, […], TX
In multi-cellular eukaryotic organisms, the effects of cAMP are transduced by two ubiquitously-expressed intracellular cAMP receptors, the classic protein kinase A/cAMP-dependent protein kinase (PKA/cAPK) and the more recently discovered exchange protein directly activated by cAMP/cAMP-regulated guanine nucleotide exchange factor (EPAC/cAMP-GEF). Both PKA and EPAC are ubiquitously expressed in all tissues, and an increase in intracellular cAMP levels will lead to the activation of both PKA and EPAC. […]
This qHTS will be used to screen the Molecular Libraries Small Molecule Repository (MLSMR) as a concentration-titration series using the NCGC unique quantitative screening (qHTS) platform to find activators for EPAC1. […] Activators are identified by monitoring the change in fluorescence signal as the exchanged free BODIPY-GDP has a reduced fluorescence compared to Rap1-bound BODIPY-GDP. […]
Briefly, three uL of reagents (100 nM EPAC2, 250 nM RAP1B-BODIPY-GDP, 50 uM GDP) were dispensed into a 1536-well Greiner black solid-bottom medium binding assay plate. […] The assay plates were read at 5 minute intervals for 30 minutes in the ViewLux plate reader using 480nm excitation and 540nm emission filters. […]
On the % scale 0 is the no-effect control and ±100 the full control effect.

Amino acid sequences for entries named in this document (tags omitted).
UniProt Q8WZA2, whole entry: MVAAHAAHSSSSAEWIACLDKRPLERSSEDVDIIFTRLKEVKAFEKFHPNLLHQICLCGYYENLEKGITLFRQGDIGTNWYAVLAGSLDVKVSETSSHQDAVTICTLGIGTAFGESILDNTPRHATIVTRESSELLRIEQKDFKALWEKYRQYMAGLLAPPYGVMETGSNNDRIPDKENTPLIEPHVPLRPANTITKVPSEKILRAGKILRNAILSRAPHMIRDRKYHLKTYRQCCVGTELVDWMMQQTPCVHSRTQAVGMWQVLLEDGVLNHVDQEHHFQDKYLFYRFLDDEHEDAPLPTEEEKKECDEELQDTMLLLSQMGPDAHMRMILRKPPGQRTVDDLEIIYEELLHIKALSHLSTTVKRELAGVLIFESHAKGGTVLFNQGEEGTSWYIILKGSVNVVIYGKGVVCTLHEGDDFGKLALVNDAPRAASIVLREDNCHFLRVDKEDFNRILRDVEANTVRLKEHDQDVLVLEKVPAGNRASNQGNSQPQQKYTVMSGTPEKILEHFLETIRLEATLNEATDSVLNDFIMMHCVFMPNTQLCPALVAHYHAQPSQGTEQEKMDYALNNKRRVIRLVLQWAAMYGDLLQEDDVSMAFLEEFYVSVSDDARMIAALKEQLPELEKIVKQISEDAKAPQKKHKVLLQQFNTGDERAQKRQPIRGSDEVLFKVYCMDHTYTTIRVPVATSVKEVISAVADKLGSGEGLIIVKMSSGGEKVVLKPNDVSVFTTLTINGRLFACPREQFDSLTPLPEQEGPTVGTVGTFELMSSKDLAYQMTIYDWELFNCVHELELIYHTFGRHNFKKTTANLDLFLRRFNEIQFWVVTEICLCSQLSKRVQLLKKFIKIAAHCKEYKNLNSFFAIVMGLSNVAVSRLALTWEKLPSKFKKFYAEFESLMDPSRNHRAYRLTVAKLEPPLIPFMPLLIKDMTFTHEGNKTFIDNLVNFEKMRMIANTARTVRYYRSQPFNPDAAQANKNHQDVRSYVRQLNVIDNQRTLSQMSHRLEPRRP

| Structure (SMILES) | activation |
| --- | --- |
| CN1CCCC(OC(=O)C(O)(c2ccccc2)c2ccccc2)C1 (stereo unspecified) | inactive: -37.5% |
